Experimental data published in patent publication US20240408094A1, “INHIBITION OF USP7 INDUCES P53-INDEPENDENT TUMOR GROWTH SUPPRESSION IN TRIPLE-NEGATIVE BREAST CANCERS BY DESTABILIZING FOXM1” (The Trustees of Columbia University in the City of New York, priority 2023, published 2024).

The chains behind the UniProt entries cited, without tags or fusion partners.
UniProt Q93009, whole entry: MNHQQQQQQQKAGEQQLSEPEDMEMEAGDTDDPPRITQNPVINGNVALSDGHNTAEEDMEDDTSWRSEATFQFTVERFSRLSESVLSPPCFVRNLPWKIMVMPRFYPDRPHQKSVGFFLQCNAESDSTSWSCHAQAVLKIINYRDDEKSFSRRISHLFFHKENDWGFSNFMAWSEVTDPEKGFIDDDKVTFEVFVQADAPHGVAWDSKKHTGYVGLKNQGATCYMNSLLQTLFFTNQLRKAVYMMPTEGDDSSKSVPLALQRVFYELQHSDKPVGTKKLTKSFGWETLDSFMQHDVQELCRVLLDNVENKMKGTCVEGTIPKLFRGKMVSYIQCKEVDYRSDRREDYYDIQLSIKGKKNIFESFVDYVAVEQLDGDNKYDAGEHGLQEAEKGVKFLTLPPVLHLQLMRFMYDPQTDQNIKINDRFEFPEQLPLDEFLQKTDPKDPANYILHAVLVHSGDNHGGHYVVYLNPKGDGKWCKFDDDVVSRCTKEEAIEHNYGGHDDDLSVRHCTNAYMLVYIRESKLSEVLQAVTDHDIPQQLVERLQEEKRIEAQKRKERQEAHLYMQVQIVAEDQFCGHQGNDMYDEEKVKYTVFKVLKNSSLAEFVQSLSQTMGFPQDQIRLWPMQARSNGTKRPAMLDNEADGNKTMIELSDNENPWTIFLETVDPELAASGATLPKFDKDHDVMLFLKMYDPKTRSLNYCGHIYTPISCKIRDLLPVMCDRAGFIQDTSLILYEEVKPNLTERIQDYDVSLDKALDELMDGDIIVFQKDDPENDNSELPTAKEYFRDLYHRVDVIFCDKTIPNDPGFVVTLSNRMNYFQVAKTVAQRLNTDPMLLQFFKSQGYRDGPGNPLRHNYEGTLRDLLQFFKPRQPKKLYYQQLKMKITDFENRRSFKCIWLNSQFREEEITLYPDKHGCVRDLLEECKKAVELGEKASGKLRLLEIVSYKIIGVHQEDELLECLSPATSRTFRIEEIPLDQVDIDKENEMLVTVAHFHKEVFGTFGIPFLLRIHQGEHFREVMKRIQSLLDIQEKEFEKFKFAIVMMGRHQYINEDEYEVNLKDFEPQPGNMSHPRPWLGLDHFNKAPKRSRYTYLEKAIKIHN

Experiments:
USPs including USP47 = assay: Western blot selectivity over other USPs in CAL33 cells; assay type: cell-based, human; conditions: CAL33, 10 μM, 72 h
Method: (§1) The expression of USP proteins was detected by immunoblotting. […] Quantitative proteomics analysis were then performed. The volcano plot represents all deferentially expressed genes in DMSO control versus PU7-1.
(§2) Lastly, because of the high homology in USP protein family, the selectivity of PU7-1 against potential off-target effects was studied. Western blot analysis of several USPs including USP47, the closest homolog of USP7, were performed in CAL33 cells treated with 10 μM of PU7-1 for 72 h. […] To further investigate the selectivity of PU7-1 proteome-wide, mass spectrometry-based quantitative proteomic analysis was performed in human lung cancer A549 cells treated with or without 2.5 μM of PU7-1 for 72 h. […] In contrast, there was no measurable decrease in the protein levels of the other 29 deubiquitinases (FIG. 3J). These findings imply that PU7-1 is an effective and selective PROTAC degrader for the USP7 protein.

[1] = system: deubiquitinases (proteome-wide); assay: Mass spectrometry-based quantitative proteomic analysis in A549 cells; assay type: cell-based, human; conditions: 2.5 μM, 72 h
Method: (§3) USP7 protein levels were detected by immunoblots. […] USP7 protein levels were measured by immunoblots. […] USP7 protein levels were detected by immunoblots, then quantified by ImageJ after normalized to internal control β-actin. Half maximal degradation concentration (DC50) was calculated by Graphpad Prism.
as §1, §2

[2] = molecular target: deubiquitinases (proteome-wide) (Homo sapiens, UniProt Q93009); assay: as above; assay type: cell-based; conditions: 2.5 μM, 72 h
Method: as §3, §1, §2

MDA-MB-468 = conditions: 10 µM
Method: (§4) Given the high expression of FOXM1 in triple-negative breast cancer, the effects of the USP7 degrader PU7-1 were next investigated in TNBC cells. First, three TNBC cell lines MDA-MB-468, MDA-MB-231 and BT549 were treated with 10 μM of PU7-1 for 96 h. The protein levels of FOXM1 were determined by Western blot. […] Next, the effects of PU7-1 were examined on TNBC cell proliferation. MDA-MB468 and BT549 were incubated in the complete growth medium with or without 10 μM of PU7-1 for two weeks. Colonies were stained by crystal violet dye that stains nucleic acids and proteins and is used to reflect the cell number. […] Furthermore, the dye bound to the cells was solubilized with 30% acetic acid and measured by the absorbance at 600 nm. The viability of PU7-1-treated cells is about 20% of the control cells in MDA-MB-468 or 30% of the control cells in BT549 (FIG. 5C). […] The IC50 of PU7-1 in TNBC cells were then determined using a luminescent cell viability assay. […] Lastly, the xenograft mouse model was utilized to investigate the in vivo efficacy of PU7-1 in TNBC. […]
(§5) 1000 cells (10000 cells for BT474) were seeded in 12-well plates. […] For quantification purpose, 1 ml of 30% acetic acid was added to de-stain for 15 min with gentle rotation. The absorbance at 600 nm was measured by using a plate reader in triplicates.

BT549 = conditions: 10 µM
Method: as §4, §5

[3] = system: CAL33, BT474, DU145 and SK-N-DZ; assay: Colony formation assay in several human cancer cell lines; assay type: cell-based; conditions: 10 μM, 2 weeks
Method: FIGS. 12A and 12B show representative images of BrdU staining (FIG. 12A) and quantification of BrdU positive (BrdU+) cells (FIG. 12B) in CAL33 cells treated with or without 10 μM of PU7-1 for 72 h. ****p<0.0001. FIGS. 12C and 12D show representative images (FIG. 12C) and normalized absorbance at 600 nm (FIG. 12D) of colony-formation assays in BT474, CAL33, DU145, SK-NDZ treated with or without 10 μM of PU7-1 for 2 weeks.
Transcription factor FOXM1 is a master regulator of the cell cycle. It tightly controls the cell cycle progression and maintains sustained cell proliferation via its various downstream target genes crucial for cell cycle regulation 16. To explore the functional consequences of PU7-1-mediated FOXM1 degradation, a transcriptome analysis was performed. CAL33 cells were treated with or without 10 μM of PU7-1 for 96 h and total RNA were extracted for RNAseq analysis. We identified ˜5000 differentially expressed genes (DEGs) in DMSO-treated versus PU7-1-treated cells (FIG. 22). […] This effect was further validated in CAL33 cells by quantitative real-time PCR (FIG. 4H).
as §5, with “plates. Next day cells were treated with DMSO or PU7-1 for 2 weeks.” for “plates.”

**Q.** What does the source list for O=C1CCC(N2Cc3c(CCCCCN4CCN(CCC(=O)Nc5ccc6c(=O)n(CC7(O)CCN(C(=O)C(CCCNC(=O)c8ccc9c(Cl)c%10c(nc9c8)CCCC%10)Cc8ccccc8)CC7)cnc6c5)CC4)cccc3C2=O)C(=O)N1 (stereo not shown)?
**A.** USP7 degradation among USPs tested (USPs including USP47): only protein degraded; protein levels of the other USPs (USPs including USP47): no change; protein levels of the other 29 deubiquitinases [1]: no measurable decrease; USP7 change among ~5500 proteins quantified [2]: most significantly decreased protein; viability (MDA-MB-468): 20%; viability (BT549): 30%; growth inhibition in colony formation assay [3]: marked growth inhibition
